This is a selection; strong and weak results do not stand in their true shares. Results filed as inconclusive are left out. Calls of active or inactive are those of the source. Calls come from the whole dose curve; as a rule, active = well fitted inhibition curve with a large enough effect; inconclusive = small, poorly fitted or top-dose-only effect, or effect the other way, or another doubt; inactive = no such curve, though single readings can be large or run the other way.
Experiment: Nrf2 qHTS screen for inhibitors: counterscreen for cytotoxicity
Details: A549 ARE-Fluc cells, CellTiter-Fluor viability, 18-24 h; series mostly up to 46 µM; activity change, negative = cytotoxicity: at the top concentration
Description: NIH Molecular Libraries Probe Production Network [MLPCN]
NIH Chemical Genomics Center [NCGC]
Assay Provider: Shyam Biswal, Johns Hopkins University
Nrf2 is a transcription factor that maintains cellular redox homoestasis and protects cells from xenobiotics. Nrf2 binds to the antioxidant response element (ARE) to induce gene expression of a broad spectrum of genes that encode for antioxidants. […] Finding a small molecule that act as an inhibitor of Nrf2 function would represent a novel therapeutic target that could lead to improvement in survival of patients undergoing chemo- and/or radio- therapy.
So here we implemented a counterscreen to weed out the cytotoxic compounds.
1. Shibata, T., et al., Genetic Alteration of Keap1 Confers Constitutive Nrf2 Activation and Resistance to Chemotherapy in Gallbladder Cancer. Gastroenterology, 2008.
2. Sjoblom, T., et al., The consensus coding sequences of human breast and colorectal cancers. Science, 2006. 314(5797): p. 268-74.
NCGC Assay Protocol Summary:
A concentration-response assay was performed with A549 ARE_Fluc cells which are suspended in 5% FBS OPTI-MEM. Five uL were dispensed into 1536-well white TC-treated plate using the Kalypsys dispenser to achieve a density of 5000 cells/well in all columns except column 1. The plate is incubated at 37deg C at 5% CO2 for 2 hours before 23 nL of compounds are added with the Kalypsys pin tool equipped with a 1,536-pin array containing 10-nL slotted pins (FP1S10, 0.457-mm diameter, 50.8 mm long; V&P Scientific). The control compounds Budesonide and Staurosporine are both added at a concentration of 2mM and Budesonide is also added as a 1:10 titration, starting at 200uM, to achieve dose-response. After an 18-24 hour incubation at 37deg C at 5% CO2, 5ul of medium is added to column 1. Afterwards 1ul of 5x of CellTiter-Fluor (Promega) is added to every well. The plate is then incubated at 37deg C at 5% CO2 for 30 minutes before they are read on the ViewLux (Perkin Elmer) for a fluorescent read Ex=405(10)/Em=525(10) for a 3 second exposure, 2x binning, and high gain. Then 3 uL of 3x BugLite is dispensed into all wells and the plate is incubated at ambient room temperature for 15 minutes. Afterwards another ViewLux read is performed using the clear filter to get a luminescent read with the settings of 40 second exposure, 2x binning, and high gain. Cytotoxicity is assessed through the first fluorescent read and then biochemical activity against Nrf2 is measured in the luminescent read.
% is set by controls: 0 for no effect and ±100 for the full control effect; potency is the fitted concentration of half-maximal effect.

| SMILES | activity change, negative = cytotoxicity | Potency |
| --- | --- | --- |
| O=[N+]([O-])c1cc(Oc2ccc([N+](=O)[O-])cc2C(F)(F)F)cc([N+](=O)[O-])c1 | inactive: 0.713% |  |
| COc1ccc2nc(NP(=O)(c3ccccc3)c3ccccc3)sc2c1 | inactive: -1.23% |  |
| COc1cc(I)ccc1[As](=O)(O)O | inactive: -5.89% |  |
| O=P1(N(CCCl)CCCl)Nc2ccccc2N1 | inactive: 2.09% |  |
| O=P1(N(CCCl)CCCl)OCCCN1CCCl (stereo not given) | inactive: 11.8% |  |
| O=C(OC1CN2CCC1CC2)C12CC3CC(CC(C3)C1)C2 (stereo not given) | inactive: 4.64% |  |
| Cc1cc(=O)[nH]c(N[N+](=O)[O-])n1 | inactive: 7.85% |  |
| CC(C)NC(=O)NP(=O)(Oc1ccccc1)Oc1ccccc1 | inactive: 0.75% |  |
| CCN(CC)C(=S)SC(NC=O)C(Cl)(Cl)Cl (stereo not given) | inactive: -7.09% |  |
| O=C(OC1CN2CCC1CC2)c1cccc2[nH]cnc12 (stereo not given) | inactive: 6.85% |  |
| COC(=O)C1(C)COP(=O)(N2CCCCCC2)OC1 (stereo not given) | inactive: 0.759% |  |
| CC(C)c1ccc(OP(=O)(Nc2ccccn2)Oc2ccccc2F)cc1 (stereo not given) | inactive: -1.12% |  |
| ClCCSc1nnc(-c2cccnc2)o1 | inactive: -2.06% |  |
| Cc1ccc2nc3c(c(C)c2c1)CC(C(Cl)Cl)S3 (stereo not given) | inactive: -0.15% |  |
| Cc1ccc(OP(=O)(Nc2ccc([N+](=O)[O-])cn2)Oc2ccc(C)cc2)cc1 | inactive: -1.45% |  |
| O=[As](O)(c1ccc(O)cc1)c1ccccc1O | inactive: -6.1% |  |
| C[As](=O)(O)c1cccc(C(=O)O)c1 | inactive: 5.92% |  |
| COc1cc(C(=O)NCC2(N3CCOCC3)CCCCC2)ccc1OCC(C)C | inactive: -11.1% |  |
| CCN(N=Nc1nonc1N)c1nonc1N | inactive: 2.66% |  |
| Nc1cccc2ccc([As](=O)(O)O)cc12 | inactive: -3.29% |  |

| SMILES | activity change, negative = cytotoxicity | Potency |
| --- | --- | --- |
| Cc1cc(SC(NC(=O)c2ccc(F)cc2)C(Cl)(Cl)Cl)ncn1 (stereo not given) | inactive: -2.68% |  |
| CCOP(=O)(Nc1ccccc1)OCC | inactive: -1.16% |  |
| Cc1ccc(NP(=O)(Oc2ccccc2F)Oc2ccccc2F)nc1 | inactive: 7.25% |  |
| CN(C(=O)Cc1ccc(Cl)c(Cl)c1)[C@H]1CCCC[C@@H]1N1CCCC1 | inactive: -0.461% |  |
| CC(=O)Nc1ccc([As](=O)(O)O)cc1 | inactive: 0.481% |  |
| O=C(O)c1ccccc1[As](=O)(O)O | inactive: -7.13% |  |
| CCCC1OP(N)(=O)OCC1CC (stereo not given) | inactive: -2.46% |  |
| CC(=O)O[C@H]1C[C@@H]2OC3C=C(C)CCC3(C)[C@@]1(C)[C@@]21CO1 (stereo not given in full) |  | active: 5.8 µM |
| O=P(Nc1nc2ccc(Cl)cc2s1)(c1ccccc1)c1ccccc1 | inactive: -15.8% |  |
| Nc1cc(N)c2nonc2c1[N+](=O)[O-] | inactive: -28.1% |  |
| CC(C)CC(=O)NC(Sc1ccc(Cl)cc1)C(Cl)(Cl)Cl (stereo not given) | inactive: -10.4% |  |
| Oc1ccccc1CNc1ccccn1 | inactive: 1.09% |  |
| O=C(NC(Sc1ccncn1)C(Cl)(Cl)Cl)c1ccccc1 (stereo not given) | inactive: 0.462% |  |
| COc1ccccc1OP(=O)(Nc1ccc(C)cn1)Oc1ccccc1OC | inactive: -8.1% |  |
| Cc1ccc(OP(=O)(Nc2nccs2)Oc2ccc(C)cc2)cc1 | inactive: -14.2% |  |
| CN1CCCC(OC(=O)C(c2ccccc2)c2ccccc2)C1 (stereo not given) | inactive: 29% |  |
| Clc1ccc(Cl)c(NC2=NCC(CBr)S2)c1 (stereo not given) | inactive: 1.06% |  |
| NC(=O)c1cc([N+](=O)[O-])cc([N+](=O)[O-])c1N | inactive: -22.7% |  |
| CN(C(=O)Cc1ccc(Cl)c(Cl)c1)[C@H]1CCCC[C@H]1N1CCCC1 | inactive: -7.28% |  |
| Cc1ccc(N/C(=N/P(=O)(N2CCOCC2)N2CCOCC2)N2CCOCC2)cc1 | inactive: 1.28% |  |

| SMILES | activity change, negative = cytotoxicity | Potency |
| --- | --- | --- |
| CC(C)=N/N=C(\N)N[N+](=O)[O-] | inactive: -0.161% |  |
| CN(C)C(=O)OCCc1n(C)cc[n+]1C | inactive: -6.33% |  |
| CC1CCN(C(=O)Oc2c(Cl)cc(Cl)c3cccnc23)CC1 | inactive: -9.73% |  |
| Nc1ccc([As](=O)(O)c2ccc(N)cc2)cc1 | inactive: 1.7% |  |
| CCN(/C(=N/P(=O)(N1CCOCC1)N1CCOCC1)N1CCOCC1)c1ccc(OC)cc1 | inactive: 0.463% |  |
| CC1=CC2OC3CC4OC(=O)/C=C/C=CC(C(C)O)OCC(O)C(C)CC(=O)OCC2(CC1O)C4(C)C31CO1 (stereo not given) |  | active: 0.146 µM |
| O=[N+]([O-])c1cccc2n[nH]nc12 | inactive: -9.29% |  |
| CC(=O)N1C2C3N(C(C)=O)C1C1N(C(C)=O)C(C(N1C(C)=O)N3C(C)=O)N2C(C)=O | inactive: -9.35% |  |
| Cc1ccc(NP(=O)(Oc2ccccc2)Oc2ccccc2)nc1 | inactive: -1.3% |  |
| CCc1nc2c(n1)c1c(non1O)c1c2no[n+]1[O-] | inactive: -12.1% |  |
| O=[N+]([O-])c1cc([N+](=O)[O-])c(CCNc2ccccc2)c([N+](=O)[O-])c1 | inactive: -12.8% |  |
| COc1ccc(C2=NCC(CBr)S2)cc1 (stereo not given) | inactive: -18% |  |
| COC(=O)C1(C)COP(=O)(Nc2ccccc2)OC1 (stereo not given) | inactive: 1.54% |  |
| O=[N+]([O-])c1cccc(NC2=NCC(CBr)S2)c1 (stereo not given) | inactive: 19.9% |  |
| O=C(O)CNc1ccc([As](=O)(O)O)cc1 | inactive: -2.6% |  |
| CC(C)(C)C(=O)NC(Sc1ccncn1)C(Cl)(Cl)Cl (stereo not given) | inactive: 13.6% |  |
| O=[N+]([O-])c1ncn(CCn2ncnc2[N+](=O)[O-])n1 | inactive: -0.904% |  |
| O=P(/N=c1/nc(-c2ccccc2)n(-c2ccccc2)s1)(Nc1ccccc1)Nc1ccccc1 | inactive: 4.12% |  |
| O=P1(N(CCCl)CCCl)OCCCS1 (stereo not given) | inactive: 3.55% |  |
| C(Cc1nn[nH]n1)Cc1nn[nH]n1 | inactive: -2.64% |  |
